# Assays:
# [1] = Drug uptake in iv dosed Wistar rat brain measured every 1 hr for 3 hrs by microdialysis technique based HPLC/UV detection method; settings: in vivo, strain Wistar
# [2] = tested on: Rattus norvegicus; assay: In vivo reactivation of POX-inhibited AChE in rat brain assessed as AChE inhibition level at 100 mg/kg, iv administered at 1 hr post POX poisoning and measured after 1 hr using acetylthiocholine iodide substrate in presence of BChE inhibitor iso-OMPA by Ellman's method (reference value: 72.4 +/- 3.5%)
# [3] = tested on: Rattus norvegicus; assay: Protection against POX-induced mortality in Wistar rat assessed as increase in survival at 100 mg/kg, iv administered 15 mins before POX poisoning in presence of 2-PAM
# [4] = tested on: Mus musculus; assay: Protection against POX-induced mortality in CD1 mouse assessed as animal survival at 300 mg/kg, iv administered 2 mins after challenge with POX at concentration of 5 X LD50
# [5] = Toxicity in CD1 mouse assessed as mortality at 300 mg/kg, iv; settings: in vivo
# [6] = tested on: Rattus norvegicus; assay: Protection against POX-induced mortality in Wistar rat assessed as increase in survival at 10 mg/kg, ip administered 15 mins before POX poisoning
compound,measurement,setting,value
C[n+]1ccccc1/C=N/O,Drug uptake,[1],< 10%
Cc1cc(=O)n(C)c(=O)n1CCCCCn1cnc(C(=O)NO)n1,inhibition (INH),[2],47.1%
same,Survival,[3],90%
same,Survival,[4],0%
same,Activity,[5],Non-Toxic
C[n+]1ccccc1C=NO,Survival,[6],90%

# Source: ChEMBL document CHEMBL4312008, “6-Methyluracil derivatives as peripheral site ligand-hydroxamic acid conjugates: Reactivation for paraoxon-inhibited acetylcholinesterase” (2020)
